# In patent publication US20040241871A1, “Method and apparatus for analyzing endocrine-distrupting substances in vital sample” (priority 2001, published 2004):
# Design: species or system human
# Settings: in vivo
# From the text: Maternal serum, cord serum and mother's milk samples collected from 10 mothers were used (30 samples in total). These samples were used for the analysis test after obtaining the consent from the subjects.
# The GPC column used was Shodex (registered trademark) EV-200AC Column (polystyrene-base hard gel column having an inner diameter of 2 mm and a length of 150 mm) manufactured by Showa Denko K. K.
# A programmed temperature vaporizer (PTV) was equipped and in the GC part, an inactivated silica tube (2 m (length)×0.53 mm (inner diameter)) and capillary columns DB-5 (0.5 m (length)×0.25 mm (inner diameter), film thickness: 0.25 μm; and 60 m (length)×0.25 mm (inner diameter), film thickness: 0.1 μm), both manufactured by J & W Scientific, were used. After the injection of solution, the temperature was kept at 83° C. (for 5 minutes) and then elevated to 172° C. at 1° C./min and further to 270° C. at 50° C./min. The measurement was performed at 280° C.
# Acetone/cyclohexane (3:7) (v/v) was passed through the GPC column for use in the main test at a flow rate of 0.1 ml/min and thereto a sample containing a vital fat, a PCB sample and water were injected and measured on the elution time from the GPC column. As a result, it was confirmed the elution of fat and dye component was completed in 0 to 3.2 minutes after the injection, the elution of PCB sample was completed in 3.2 to 5.2 minutes and the water content started flowing out after 5.2 minutes.
# A calibration curve was prepared for 209 kinds of PCB isomers. […]
# The cord serum (8 ml), the maternal serum (4 ml) and the mother's milk (2 ml) each was subjected to fat extraction according to the method by Patterson et al. More specifically, the sample was charged into a separating funnel, the internal standard substance was added, and then saturated ammonium sulfate, ethanol and hexane were added at a ratio of about 1:1:3. […] Thereafter, the total weight of fat was measured. […]
substance,measurement,value
polychlorinated biphenyl [PCB],"Concentration of Endocrine-Disrupting Substance in Vital Sample, Cord Serum",60.90 ppb
same,"Concentration of Endocrine-Disrupting Substance in Vital Sample, Maternal Serum",98.52 ppb
same,"Concentration of Endocrine-Disrupting Substance in Vital Sample, Mother's Milk",95.02 ppb
